Data published in US20030206932A1, “Novel topical compositions” (priority 1994, published 2003).

Test: Solubility parameter δ estimated from tabulated molecular substituent constants (Fedors)
Conditions: difference to the solubility parameter of retinol
Excerpt: Solubility attributes of two or more materials with respect to each other are generally reflected in the “solubility parameter”, δ, which is expressed in the units (cal/cm^3)^1/2.
The value of the solubility parameter can be estimated from tabulated molecular substituent constants such as those described by Fedors. These substituent constants can be found in Solubility and Related Properties by Kenneth C. […] Generally, according to Textbook of Polymer Science, 2nd Ed., Billmeyer, solubility can be expected if the difference of the solubility parameters of two materials is less than about 2 units.

## C12 Alkyl Benzoate
  δN − δRETINOL: −0.31 (cal/cm^3)^1/2

## C15 Alkyl Benzoate
  δN − δRETINOL: −0.40 (cal/cm^3)^1/2
